Assay results: paper PMC10977697 (PLOS ONE, 2024)

Experiments:
HtrA1 [1] = target: T1, HtrA1 (human, UniProt Q92743 23-480, biotin on lysines (Sulfo-NHS-LC-biotin) for panning and SPR); test: cell-based or functional assay
HtrA1 [2] = target: T1, HtrA1; test: SPR; settings: both partners purified
HtrA1 [3] = target: T1, HtrA1; test: ELISA; settings: one partner purified

| Binder | inhibition of HtrA1 enzyme activity (substrate H2-OPT), 20 μM DCP (HtrA1 [1]) | Kd (HtrA1 [2]) | s/n ratio (HtrA1 [3]) |
| --- | --- | --- | --- |
| WIPCISAALGCSCKNKVCYFLYQICGESCV (designed binder) [HtrA1_CirA38] | > 75% |  |  |
| AFDCLGQCGRCDFHKLQCVMVYFIHMTKPYCNSSCTR (designed binder, AVR9 scaffold; source: synthetic peptide, folded in vitro) [HtrA1_AVR61] |  | > 20 µM |  |
| AFDCLGQCGRCDFHKLQCVMVYFIHMTKPYCNSSCTR (designed binder, AVR9 scaffold; source: M13 phage from E. coli, culture supernatant) [HtrA1_AVR61 displayed on M13 phage] |  |  | 24.4 |
| GCHRPWWQLWGLCKQDSDCLAGCVCGPNGFCG (designed binder) [HtrA1_EET76] | > 50% |  |  |
| GPTQSFWGWCGGIGYVGGRYCSGTTCQRPDAHWSQCLPGAS (designed binder) [HtrA1_CBDamy86 displayed on M13 phage] |  |  | 22.8 |
| GPTQSFWGWCGGIGYVGGRYCSGTTCQRPDAHWSQCLPGAS (designed binder) [HtrA1_CBDamy86] |  | 158 µM |  |
| AFDCLGQCGRCDFHKLQCVRQIVWRVINLSHYCNSSCTR (designed binder, AVR9 scaffold; source: synthetic peptide, folded in vitro) [HtrA1_AVR62] | > 75% | > 15 µM |  |
| AFDCLGQCGRCDFHKLQCVRQIVWRVINLSHYCNSSCTR (designed binder, AVR9 scaffold; source: M13 phage from E. coli, culture supernatant) [HtrA1_AVR62 displayed on M13 phage] |  |  | 19.5 |
| WIPCISAALGCSCKNKVCYIFSKHLCGESCV (designed binder) [HtrA1_CirA65] | > 75% |  |  |
